Experimental data reported in patent publication US20180066029A1 (UNIVERSIT T STUTTGART, published 2018).
Positions count from the first letter of the chain named. In names and notes the source's numbering stands.

B1: artificial protein PLP (PWWP domain of Dnmt3a, artificial linker of 27 amino acids, PWWP domain of Dnmt3a, N-terminal GST tag) (designed binder)
chain: MSPILGYWKIKGLVQPTRLLLEYLEEKYEEHLYERDEGDKWRNKKFELGLEFPNLPYYIDGDVKLTQSMAIIRYIADKHNMLGGCPKERAEISMLEGAVLDIRYGVSRIAYSKDFETLKVDFLSKLPEMLKMFEDRLCHKTYLNGDHVTHPDFMLYDALDVVLYMDPMCLDAFPKLVCFKKRIEAIPQIDKYLKSSKYIAWPLQGWQATFGGGDHPPKSDLEVLFQGPLGSPGILGSEYEDGRGFGIGELVWGKLRGFSWWPGRIVSWWMTGRSRAAEGTRWVMWFGDGKFSVVCVEKLMPLSSFCSAFHQATYNKQPMYRKAIYEVLQVASSRAGKLFPACHDSDESDSGKAVEVQNKQMIEWALGGFQPSGPKGLEPPLERPHRDSSGNSNANSRGPSFSSGLVPLSLRGSHGSEYEDGRGFGIGELVWGKLRGFSWWPGRIVSWWMTGRSRAAEGTRWVMWFGDGKFSVVCVEKLMPLSSFCSAFHQATYNKQPMYRKAIYEVLQVASSRAGKLFPACHDSDESDSGKAVEVQNKQMIEWALGGFQPSGPKGLEPPLERPHRD
notes: N-terminal GST tag
B2: artificial protein PM (PWWP domain of Dnmt3a, naturally occurring linker of 21 amino acids, chromodomain of MPP8, N-terminal GST tag) (designed binder)
chain: MSPILGYWKIKGLVQPTRLLLEYLEEKYEEHLYERDEGDKWRNKKFELGLEFPNLPYYIDGDVKLTQSMAIIRYIADKHNMLGGCPKERAEISMLEGAVLDIRYGVSRIAYSKDFETLKVDFLSKLPEMLKMFEDRLCHKTYLNGDHVTHPDFMLYDALDVVLYMDPMCLDAFPKLVCFKKRIEAIPQIDKYLKSSKYIAWPLQGWQATFGGGDHPPKSDLEVLFQGPLGSPGILGSEYEDGRGFGIGELVWGKLRGFSWWPGRIVSWWMTGRSRAAEGTRWVMWFGDGKFSVVCVEKLMPLSSFCSAFHQATYNKQPMYRKAIYEVLQVASSRAGKLFPACHDSDESDSGKAVEVQNKQMIEWALGGFQPSGPKGLEPPLERPHRDVFEVEKILDMKTEGGKVLYKVRWKGYTSDDDTWEPEIHLEDCKEVLLEFRKKIAEPGSTRAAAS
notes: Each artificial protein carries an N-terminal GST tag (pGEX-6P-2)
B3: variant of PM with pocket mutation F59A in the chromodomain of MPP8 (designed binder)
chain: B2 chain with F389A
notes: N-terminal GST tag
B4: variant of PM with pocket mutation D329A in the PWWP domain of Dnmt3a (designed binder)
chain: B2 chain with D288A
notes: N-terminal GST tag
B5: artificial protein PT (PWWP domain of Dnmt3a, naturally occurring linker of 14 amino acids, PHD domain of TAF3, N-terminal GST tag) (designed binder)
chain: MSPILGYWKIKGLVQPTRLLLEYLEEKYEEHLYERDEGDKWRNKKFELGLEFPNLPYYIDGDVKLTQSMAIIRYIADKHNMLGGCPKERAEISMLEGAVLDIRYGVSRIAYSKDFETLKVDFLSKLPEMLKMFEDRLCHKTYLNGDHVTHPDFMLYDALDVVLYMDPMCLDAFPKLVCFKKRIEAIPQIDKYLKSSKYIAWPLQGWQATFGGGDHPPKSDLEVLFQGPLGSEYEDGRGFGIGELVWGKLRGFSWWPGRIVSWWMTGRSRAAEGTRWVMWFGDGKFSVVCVEKLMPLSSFCSAFHQATYNKQPMYRKAIYEVLQVASSRAGKLFPACHDSDESDSGKAVEVQNKQMIEWALGGFQPSGPKGLEPPVIRDEWGNQIWICPGCNKPDDGSPMIGCDDCDDWYHWPCVGIMTAPPEEMQWFCPKCANKKKDKKHKKRKHRAH
notes: N-terminal GST tag

Molecular target: recombinant histone H4 (no post-translational modifications)
Assay: far-western blot

Row | Binder | binding result
1 | B1 | no binding
2 | B2 | no binding (tested: 10 nM)
3 | B3 | no binding (tested: 10 nM)
4 | B4 | no binding (tested: 10 nM)
5 | B5 | no binding
